Assay [1] has as its target Sodium channel protein type 9 subunit alpha (Homo sapiens, UniProt Q15858). Description: Inhibition of human Nav1.7 expressed in HEK293 cells assessed as inhibition of sodium current at holding potential of -125 mV measured for 3 to 5 mins by whole cell voltage clamp method. It counts as cell-based.
Assay [2] deals with Sodium channel protein type 5 subunit alpha (Homo sapiens, UniProt Q14524). The assay is described as follows: Inhibition of human Nav1.5 expressed in HEK293 cells assessed as inhibition of sodium current at holding potential of -125 mV measured for 3 to 5 mins by whole cell voltage clamp method. In kind it is cell-based.

By UniProt entry, the sequences of proteins in these tests, tags left out.
UniProt Q15858, whole entry: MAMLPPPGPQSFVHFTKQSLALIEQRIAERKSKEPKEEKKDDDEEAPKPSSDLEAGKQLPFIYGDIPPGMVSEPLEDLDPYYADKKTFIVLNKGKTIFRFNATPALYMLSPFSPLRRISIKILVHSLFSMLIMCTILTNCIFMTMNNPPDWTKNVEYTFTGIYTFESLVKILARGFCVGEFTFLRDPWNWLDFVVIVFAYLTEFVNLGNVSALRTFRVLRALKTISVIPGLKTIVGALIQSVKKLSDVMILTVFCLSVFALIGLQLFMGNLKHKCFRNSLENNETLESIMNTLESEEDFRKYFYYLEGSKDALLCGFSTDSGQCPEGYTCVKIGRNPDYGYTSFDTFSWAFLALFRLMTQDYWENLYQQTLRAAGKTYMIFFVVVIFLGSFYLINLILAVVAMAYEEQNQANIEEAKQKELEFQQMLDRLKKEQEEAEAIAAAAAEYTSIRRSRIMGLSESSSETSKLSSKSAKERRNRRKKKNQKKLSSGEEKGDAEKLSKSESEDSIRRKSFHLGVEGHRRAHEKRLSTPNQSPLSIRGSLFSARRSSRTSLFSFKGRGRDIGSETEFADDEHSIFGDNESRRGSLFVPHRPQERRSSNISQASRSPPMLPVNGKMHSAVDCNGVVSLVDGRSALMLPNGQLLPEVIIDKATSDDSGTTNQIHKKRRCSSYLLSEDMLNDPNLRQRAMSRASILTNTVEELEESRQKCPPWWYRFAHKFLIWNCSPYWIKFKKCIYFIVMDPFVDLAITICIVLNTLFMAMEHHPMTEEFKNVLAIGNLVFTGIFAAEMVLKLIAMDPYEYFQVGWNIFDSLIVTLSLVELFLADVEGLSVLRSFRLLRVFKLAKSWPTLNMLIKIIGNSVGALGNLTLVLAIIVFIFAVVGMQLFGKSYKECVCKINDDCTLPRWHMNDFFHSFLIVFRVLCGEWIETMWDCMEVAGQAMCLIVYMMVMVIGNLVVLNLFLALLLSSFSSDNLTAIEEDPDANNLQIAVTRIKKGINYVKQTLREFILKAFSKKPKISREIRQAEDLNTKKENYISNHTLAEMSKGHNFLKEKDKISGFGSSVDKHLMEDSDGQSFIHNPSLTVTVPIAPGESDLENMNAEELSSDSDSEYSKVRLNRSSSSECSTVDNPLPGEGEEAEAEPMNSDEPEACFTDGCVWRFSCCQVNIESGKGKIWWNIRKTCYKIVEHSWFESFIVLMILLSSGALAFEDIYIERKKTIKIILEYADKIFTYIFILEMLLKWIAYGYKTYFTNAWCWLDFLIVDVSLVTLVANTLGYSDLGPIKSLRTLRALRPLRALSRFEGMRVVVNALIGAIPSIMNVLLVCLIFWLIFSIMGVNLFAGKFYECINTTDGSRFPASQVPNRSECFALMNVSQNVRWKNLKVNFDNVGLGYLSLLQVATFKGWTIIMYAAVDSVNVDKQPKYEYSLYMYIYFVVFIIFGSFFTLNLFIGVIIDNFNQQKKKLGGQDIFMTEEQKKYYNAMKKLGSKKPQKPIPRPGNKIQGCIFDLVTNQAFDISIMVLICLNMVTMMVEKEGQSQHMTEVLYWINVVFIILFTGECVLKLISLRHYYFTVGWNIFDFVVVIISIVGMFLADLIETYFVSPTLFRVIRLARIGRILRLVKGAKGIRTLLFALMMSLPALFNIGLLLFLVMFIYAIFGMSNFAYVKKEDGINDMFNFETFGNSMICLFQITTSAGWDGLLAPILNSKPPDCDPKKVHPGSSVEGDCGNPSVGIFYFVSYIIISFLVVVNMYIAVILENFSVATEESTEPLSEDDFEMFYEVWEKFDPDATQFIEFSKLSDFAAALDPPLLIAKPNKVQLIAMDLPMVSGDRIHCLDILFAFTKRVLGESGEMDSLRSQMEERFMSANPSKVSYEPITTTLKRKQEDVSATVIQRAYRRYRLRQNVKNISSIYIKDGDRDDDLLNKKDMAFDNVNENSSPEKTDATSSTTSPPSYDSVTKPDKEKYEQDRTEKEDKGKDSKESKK
UniProt Q14524, whole entry: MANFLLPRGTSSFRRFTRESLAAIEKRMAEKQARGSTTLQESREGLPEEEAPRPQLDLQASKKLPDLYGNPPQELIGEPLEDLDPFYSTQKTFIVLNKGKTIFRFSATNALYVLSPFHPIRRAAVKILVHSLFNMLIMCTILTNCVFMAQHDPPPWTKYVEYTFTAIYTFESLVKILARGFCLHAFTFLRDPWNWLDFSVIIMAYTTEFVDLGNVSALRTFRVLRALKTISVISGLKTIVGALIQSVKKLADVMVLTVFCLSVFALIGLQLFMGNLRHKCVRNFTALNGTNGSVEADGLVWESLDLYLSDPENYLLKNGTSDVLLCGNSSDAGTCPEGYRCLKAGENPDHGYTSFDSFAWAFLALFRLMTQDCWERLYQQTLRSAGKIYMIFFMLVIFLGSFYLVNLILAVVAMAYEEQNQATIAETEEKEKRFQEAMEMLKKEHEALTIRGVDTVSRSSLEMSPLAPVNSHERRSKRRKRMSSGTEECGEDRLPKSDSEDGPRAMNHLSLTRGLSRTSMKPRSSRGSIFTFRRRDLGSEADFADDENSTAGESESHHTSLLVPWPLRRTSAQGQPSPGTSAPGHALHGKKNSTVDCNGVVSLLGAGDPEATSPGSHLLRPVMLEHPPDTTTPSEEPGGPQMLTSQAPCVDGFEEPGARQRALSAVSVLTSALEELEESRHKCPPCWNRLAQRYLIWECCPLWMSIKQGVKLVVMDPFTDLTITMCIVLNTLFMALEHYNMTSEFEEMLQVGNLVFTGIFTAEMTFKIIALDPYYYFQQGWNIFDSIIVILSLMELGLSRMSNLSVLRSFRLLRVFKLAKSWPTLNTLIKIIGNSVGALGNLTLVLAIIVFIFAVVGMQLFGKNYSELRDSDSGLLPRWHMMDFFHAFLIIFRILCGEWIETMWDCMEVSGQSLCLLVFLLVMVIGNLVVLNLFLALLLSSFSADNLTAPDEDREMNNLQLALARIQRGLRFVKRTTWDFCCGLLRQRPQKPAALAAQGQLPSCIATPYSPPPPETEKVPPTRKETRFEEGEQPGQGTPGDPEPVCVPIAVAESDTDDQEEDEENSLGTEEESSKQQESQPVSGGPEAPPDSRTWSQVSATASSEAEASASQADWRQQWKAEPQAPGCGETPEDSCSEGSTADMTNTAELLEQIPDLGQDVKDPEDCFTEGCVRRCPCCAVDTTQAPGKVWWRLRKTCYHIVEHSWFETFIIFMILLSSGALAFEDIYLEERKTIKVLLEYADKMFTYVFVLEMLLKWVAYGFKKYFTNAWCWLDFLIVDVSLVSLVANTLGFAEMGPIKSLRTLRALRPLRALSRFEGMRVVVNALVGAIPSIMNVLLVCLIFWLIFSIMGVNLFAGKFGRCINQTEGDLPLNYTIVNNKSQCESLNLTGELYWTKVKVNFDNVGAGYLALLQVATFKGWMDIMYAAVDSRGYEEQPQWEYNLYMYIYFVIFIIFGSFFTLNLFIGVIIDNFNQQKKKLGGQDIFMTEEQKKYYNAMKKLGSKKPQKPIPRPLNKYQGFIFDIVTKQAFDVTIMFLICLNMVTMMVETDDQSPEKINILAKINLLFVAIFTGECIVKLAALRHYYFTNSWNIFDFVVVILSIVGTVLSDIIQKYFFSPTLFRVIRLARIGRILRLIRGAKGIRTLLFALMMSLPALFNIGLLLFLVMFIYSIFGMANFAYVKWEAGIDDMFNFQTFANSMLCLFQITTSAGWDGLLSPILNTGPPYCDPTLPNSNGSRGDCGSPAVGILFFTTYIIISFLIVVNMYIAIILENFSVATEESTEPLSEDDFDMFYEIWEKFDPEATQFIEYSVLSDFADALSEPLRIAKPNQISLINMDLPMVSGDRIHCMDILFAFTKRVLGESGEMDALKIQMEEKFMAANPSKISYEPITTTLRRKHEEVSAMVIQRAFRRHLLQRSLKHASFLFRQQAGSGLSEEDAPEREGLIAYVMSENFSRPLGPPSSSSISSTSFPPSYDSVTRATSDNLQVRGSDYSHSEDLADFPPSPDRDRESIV

Usually IC50 stands for the concentration that inhibits the measured activity by half. Turning to `N#Cc1cc(S(=O)(=O)Nc2ncns2)ccc1Oc1ccc(C(F)(F)F)cc1-c1cn[nH]c1`, the IC50 in assay [1] worked out at 14 nM.

In the case of `Cn1nccc1-c1cc(C(F)(F)F)ccc1-c1cccc2cc(S(=O)(=O)Nc3ncns3)ccc12`, the IC50 is above 30000 nM in assay [2] and 120 nM in assay [1].

Consider `O=S(=O)(Nc1ncns1)c1ccc2c(-c3ccc(C(F)(F)F)cc3O)cccc2c1`, for which, in assay [1], the IC50 was 810 nM.

These data come from ChEMBL document CHEMBL3864175, “Sulfonamides as Selective NaV1.7 Inhibitors: Optimizing Potency and Pharmacokinetics to Enable in Vivo Target Engagement” (ACS Med Chem Lett, 2016).
